Assay results: patent US9539256B2 (THE BOARD OF REGENTS OF THE UNIVERSITY OF TEXAS SYSTEM, priority 2012, dated 2017)

Chains of the proteins cited; added tags and fusions are not shown.
UniProt Q9EQZ6, whole entry: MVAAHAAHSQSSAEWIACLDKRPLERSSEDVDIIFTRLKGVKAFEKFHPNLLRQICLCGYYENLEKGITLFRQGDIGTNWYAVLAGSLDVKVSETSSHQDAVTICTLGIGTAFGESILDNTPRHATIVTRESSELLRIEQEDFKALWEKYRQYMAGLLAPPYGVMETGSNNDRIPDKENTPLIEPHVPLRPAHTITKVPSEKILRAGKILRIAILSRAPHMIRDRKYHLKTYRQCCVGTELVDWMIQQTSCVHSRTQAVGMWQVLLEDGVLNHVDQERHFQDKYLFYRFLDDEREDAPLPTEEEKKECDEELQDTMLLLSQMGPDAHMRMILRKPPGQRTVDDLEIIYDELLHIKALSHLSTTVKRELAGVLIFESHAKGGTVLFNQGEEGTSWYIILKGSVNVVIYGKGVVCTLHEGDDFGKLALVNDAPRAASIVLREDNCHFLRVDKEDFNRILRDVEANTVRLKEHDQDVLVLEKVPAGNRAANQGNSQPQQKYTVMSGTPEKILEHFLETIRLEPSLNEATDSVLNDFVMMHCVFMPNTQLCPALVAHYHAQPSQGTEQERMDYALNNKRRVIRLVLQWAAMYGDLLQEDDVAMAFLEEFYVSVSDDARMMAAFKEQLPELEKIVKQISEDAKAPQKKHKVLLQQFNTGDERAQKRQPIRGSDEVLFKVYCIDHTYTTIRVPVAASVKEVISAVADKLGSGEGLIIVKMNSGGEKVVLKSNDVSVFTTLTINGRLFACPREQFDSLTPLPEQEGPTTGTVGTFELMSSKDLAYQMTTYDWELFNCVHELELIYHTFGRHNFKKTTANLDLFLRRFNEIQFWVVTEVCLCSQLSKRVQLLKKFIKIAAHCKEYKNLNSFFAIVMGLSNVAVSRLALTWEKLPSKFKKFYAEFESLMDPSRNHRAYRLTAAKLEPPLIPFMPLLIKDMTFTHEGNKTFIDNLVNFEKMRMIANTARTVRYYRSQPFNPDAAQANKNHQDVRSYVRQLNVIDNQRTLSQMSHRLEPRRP
UniProt Q8WZA2, whole entry: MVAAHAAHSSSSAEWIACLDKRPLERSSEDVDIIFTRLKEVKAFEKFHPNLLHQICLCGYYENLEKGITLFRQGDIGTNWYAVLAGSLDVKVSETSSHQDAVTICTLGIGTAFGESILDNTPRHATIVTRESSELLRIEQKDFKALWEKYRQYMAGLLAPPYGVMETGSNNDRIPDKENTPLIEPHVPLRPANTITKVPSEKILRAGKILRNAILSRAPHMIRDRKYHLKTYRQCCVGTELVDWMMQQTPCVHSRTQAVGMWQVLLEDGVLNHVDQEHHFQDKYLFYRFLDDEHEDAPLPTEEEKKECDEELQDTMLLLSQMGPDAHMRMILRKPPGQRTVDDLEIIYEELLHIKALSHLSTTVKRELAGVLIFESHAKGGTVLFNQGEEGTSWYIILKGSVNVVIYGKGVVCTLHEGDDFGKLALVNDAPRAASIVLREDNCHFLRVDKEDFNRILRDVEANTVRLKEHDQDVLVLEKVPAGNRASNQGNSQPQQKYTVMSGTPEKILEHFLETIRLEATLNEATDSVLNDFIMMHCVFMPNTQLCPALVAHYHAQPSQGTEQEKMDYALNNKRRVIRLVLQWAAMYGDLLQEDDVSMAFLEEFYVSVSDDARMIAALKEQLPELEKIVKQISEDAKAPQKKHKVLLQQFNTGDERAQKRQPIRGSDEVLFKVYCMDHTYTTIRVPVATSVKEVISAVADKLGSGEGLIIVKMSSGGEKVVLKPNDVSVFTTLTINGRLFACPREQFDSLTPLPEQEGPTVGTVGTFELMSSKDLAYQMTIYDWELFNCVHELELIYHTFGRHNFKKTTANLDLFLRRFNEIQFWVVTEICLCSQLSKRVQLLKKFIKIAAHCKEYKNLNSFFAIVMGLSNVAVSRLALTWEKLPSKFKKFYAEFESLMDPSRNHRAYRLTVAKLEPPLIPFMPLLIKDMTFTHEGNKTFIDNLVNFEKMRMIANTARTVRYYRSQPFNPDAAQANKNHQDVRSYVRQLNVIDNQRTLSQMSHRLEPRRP
UniProt O95398, whole entry: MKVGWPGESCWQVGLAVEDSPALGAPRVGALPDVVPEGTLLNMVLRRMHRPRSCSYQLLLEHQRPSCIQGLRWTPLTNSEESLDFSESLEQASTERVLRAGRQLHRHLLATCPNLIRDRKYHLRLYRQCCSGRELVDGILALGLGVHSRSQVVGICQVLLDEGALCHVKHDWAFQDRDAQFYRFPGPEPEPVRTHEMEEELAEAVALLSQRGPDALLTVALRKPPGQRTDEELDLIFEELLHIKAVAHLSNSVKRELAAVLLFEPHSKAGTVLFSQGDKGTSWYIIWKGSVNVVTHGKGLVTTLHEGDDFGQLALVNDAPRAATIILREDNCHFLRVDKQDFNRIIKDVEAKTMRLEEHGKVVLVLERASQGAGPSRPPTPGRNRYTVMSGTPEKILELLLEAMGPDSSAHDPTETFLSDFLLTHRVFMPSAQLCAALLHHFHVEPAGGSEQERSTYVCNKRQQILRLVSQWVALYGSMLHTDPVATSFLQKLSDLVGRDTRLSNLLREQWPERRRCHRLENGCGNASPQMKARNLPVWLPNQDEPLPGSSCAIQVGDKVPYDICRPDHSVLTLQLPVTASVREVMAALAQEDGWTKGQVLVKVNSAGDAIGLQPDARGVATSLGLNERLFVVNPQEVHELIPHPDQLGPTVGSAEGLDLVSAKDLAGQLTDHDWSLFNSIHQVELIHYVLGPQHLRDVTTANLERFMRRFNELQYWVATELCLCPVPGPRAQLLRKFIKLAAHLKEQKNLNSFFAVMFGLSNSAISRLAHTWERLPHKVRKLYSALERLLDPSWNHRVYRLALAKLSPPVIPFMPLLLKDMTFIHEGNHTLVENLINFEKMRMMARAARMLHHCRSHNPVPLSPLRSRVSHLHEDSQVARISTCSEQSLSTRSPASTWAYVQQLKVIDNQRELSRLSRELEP

Experiments:
EPAC2 [1] = target: EPAC2 (UniProt Q9EQZ6); assay: 8-NBD-cAMP competition binding to EPAC2; settings: for IC50: read-out: Apparent IC50, competing with 8-NBD-cAMP in binding EPAC2; for Relative Potency (RA): RA = IC50, cAMP/IC50, compound
type II PKA holoenzyme = assay: PKA counter screening, type II holoenzyme; format: biochemical; settings: 25 μM compound; tested form: iodide
Procedure: (§1) Kinase activity of the type I and II PKA holoenzyme are measured spectrophotometrically in a 96-well plate with a coupled enzyme assay as described previously (Cook et al. (1982) Biochemistry 21: 5794-5799). In this assay, the formation of ADP is coupled to the oxidation of NADH by the pyruvate kinase/lactate dehydrogenase reactions so the reaction rate can be determined by following the oxidation of NADH, reflected by a decrease in absorbance at 340 nm. […] Reactions are pre-equilibrated at room temperature and initiated by adding the Kemptide substrate (final concentration 0.26 mM).

EPAC2 [2] = target: EPAC2 (Homo sapiens, UniProt Q8WZA2); assay: Rap1 activation assay in HEK293/EPAC2 cells; settings: pre-treatment with 10 μM compound, tested form: iodide
type I PKA holoenzyme = assay: PKA counter screening, type I holoenzyme; format: biochemical; settings: 25 μM compound; tested form: iodide
Procedure: as §1

EPAC1 [3] = target: T1, EPAC1 (Homo sapiens, UniProt O95398); assay: Rap1-GDP exchange (GEF) activity assay, EPAC1; settings: tested form: iodide
EPAC1 [4] = target: T1, EPAC1; assay: Rap1 activation assay in HEK293/EPAC1 cells; settings: tested form: iodide

Nc1ccc(Nc2ccc(N)cc2S(=O)(=O)O)cc1
IC50 (EPAC2 [1]): 18 µM

O=S(=O)(CS(=O)(=O)Oc1cc(Cl)cc(Cl)c1)Oc1cc(Cl)cc(Cl)c1
Relative Potency (RA) (EPAC2 [1]): 5.8
IC50 (EPAC2 [1]): 6.7 µM

CCCCc1ccc(NC(=O)CSc2nc(C3CCCCC3)c(C#N)c(=O)[nH]2)c(C)c1
Relative Potency (RA) (EPAC2 [1]): 39
IC50 (EPAC2 [1]): 1 µM

COCCC[n+]1c(C)csc1Nc1c(C)cc(C)cc1C
cAMP-induced type II PKA holoenzyme activation (type II PKA holoenzyme): did not significantly alter
007-AM induced Rap1 activation (EPAC2 [2]): significant reduction
Relative Potency (RA) (EPAC2 [1]; tested form: iodide): 57
IC50 (EPAC2 [1]; tested form: iodide): 0.67 µM
cAMP-induced type I PKA holoenzyme activation (type I PKA holoenzyme): did not significantly alter
suppressing EPAC1 GEF activity (EPAC1 [3]; cAMP-mediated Rap1-GDP exchange): completely ineffective
EPAC1 IC50 (EPAC1 [3]; suppressing EPAC1 GEF activity, 25 μM cAMP): NMA*
007-AM induced Rap1 activation (EPAC1 [4]): ineffective

Read-outs that look alike come from different tables or passages of the source.
